The structures appear in SMILES notation. The entries are a selection whose mix differs from that of the whole data set. The source made the active and inactive calls.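 The calls were made as follows: active = activation above the mean activation of all tested compounds plus 3 SD, per screening run (cut at about 20% in these data); inactive = the rest.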

Protein sequences, listed by entry. Tags and fused reporters are not part of them.
UniProt P37288, whole entry: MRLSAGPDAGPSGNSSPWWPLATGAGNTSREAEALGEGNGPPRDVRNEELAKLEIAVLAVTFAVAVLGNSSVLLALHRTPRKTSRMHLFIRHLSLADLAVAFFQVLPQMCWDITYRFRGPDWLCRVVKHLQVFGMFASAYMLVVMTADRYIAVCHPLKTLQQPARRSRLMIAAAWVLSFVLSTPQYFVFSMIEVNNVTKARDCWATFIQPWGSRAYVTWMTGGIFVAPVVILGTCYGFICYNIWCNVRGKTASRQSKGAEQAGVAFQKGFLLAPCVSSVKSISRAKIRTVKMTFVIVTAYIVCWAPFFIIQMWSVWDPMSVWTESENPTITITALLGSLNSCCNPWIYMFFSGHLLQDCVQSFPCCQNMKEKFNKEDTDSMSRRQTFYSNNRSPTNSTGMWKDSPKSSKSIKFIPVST

This assay concerns the target Vasopressin V1a receptor (Homo sapiens) (UniProt P37288). As to the kind of experiment: V1R activation via calcium rise – fluorescence, CHO-V1R cells, counter-screen for OXTR agonist project, primary screen (AID 2797).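 Also: signal is peak over basal fluorescence ratio across a 100 second FLIPR read.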 Particulars: Fluo-8 calcium fluorescence, agonist mode, at 3 µM, active compounds read high, 0% DMSO, 100% 3 nM vasopressin.
In the case of `CN(C)c1ccc(C(=O)NCC2(N3CCCCC3)CCCCC2)cc1`, the activation is inactive: 0.78%.
As for `O=C(NCC1(N2CCCCC2)CCCCC1)c1ccco1`, the activation is inactive: -0.61%.
The figure for `CCN1CCC(Nc2cccc(F)c2)CC1` is inactive: -0.47%; for `Fc1ccccc1NC1CCN(Cc2ccccc2)CC1` it is inactive: 0.44%.
With `Cc1ccc(C(=O)NCC2(N3CCCCC3)CCCCC2)o1`, the activation is inactive: -0.77%.
In the case of `COc1cc(OC)cc(C(=O)NCC2(N3CCCCC3)CCCCC2)c1`, the activation was inactive: -0.81%.
Take `CN1CCC(Nc2ccc(Cl)cc2)CC1`: the activation was inactive: 1.8%.
The figure for `CCCOc1ccc(C)cc1CN(CCCl)CCCl` is inactive: 0.03%; for `COc1cc(OC)cc(C(=O)NCC2(N3CCOCC3)CCCCC2)c1` it is inactive: -0.26%.
The figure for `COc1cccc(C(=O)N(c2cc(C)cc(C)c2)C2CCN(C(=O)OC(C)(C)C)CC2)c1` is inactive: -1.16%; for `CCC(CO)(C(=O)OC1CN2CCC1CC2)c1ccccc1` (stereo not drawn) it is inactive: -0.15%.
Turning to `O=C(O)C1(Nc2ccccc2)CCN(Cc2ccccc2)CC1`, the activation was inactive: 0.04%.
Consider `CC(C)(C)OC(=O)N1CCC(Nc2ccccc2)CC1`, for which the activation was inactive: 1.03%.
The figure for `CCCOc1ccc(C(=O)NCC2(N(C)C)CCCCC2)cc1` is inactive: 1.87%.
For `CN1CCC(Nc2ccc(F)c(Cl)c2)CC1`, the activation was inactive: 0.2%.
As for `CCOc1ncccc1C(=O)NCC1(N2CCOCC2)CCCCC1`, the activation is inactive: -0.3%.
For the molecule `CCc1cc(C(=O)NCC2(N3CCCCC3)CCCCC2)sc1C`, the activation was inactive: -1.16%.
Consider `O=C(OC1CN2CCC1CC2)C1c2ccccc2C=Cc2ccccc21` (stereo not drawn), for which the activation was inactive: 1.17%.
Take `CCOC(=O)N1CCC(Nc2ccc(C)cc2)CC1`: the activation is inactive: 1.45%.
For `N/C(=N\O)c1c(N)no[n+]1[O-]`, the activation is inactive: 0.62%.
As for `COc1ccc(C(=O)NCC2(N3CCOCC3)CCCCC2)cc1OC`, the activation was inactive: 0.22%.
As for `COc1cc(C(=O)NCC2(N3CCOCC3)CCCCC2)cc(OC)c1C`, the activation is inactive: -1.06%.
The figure for `O=C(NCC1(N2CCOCC2)CCCCC1)c1cc(Br)ccc1Cl` is inactive: -1.85%; for `CN(C)C1(CNC(=O)c2cccc(C#N)c2)CCCCC1` it is inactive: 0.54%.
For the molecule `CCCN1CCC(Nc2cc(OC)cc(OC)c2)CC1`, the activation is inactive: 0.29%.
With `c1ccc(CN2CCC(Nc3ccccc3)CC2)cc1`, the activation was inactive: 0.27%.
Consider `N#Cc1ccc(C(=O)NCC2(N3CCCCC3)CCCCC2)cc1`, for which the activation is inactive: -0.54%.
Turning to `CC(C)(C)OC(=O)N1CCC(N(C(=O)c2ccccc2)c2ccc(Cl)cc2)CC1`, the activation is inactive: -0.54%.
Turning to `COc1cc(C(=O)NCC2(N3CCCCC3)CCCCC2)ccc1OC(F)F`, the activation is inactive: 0.21%.
For `O=C(NCC1(N2CCOCC2)CCCCC1)c1cc(=O)[nH]c2ccccc12`, the activation was inactive: 0.04%.
`CN1CCN(CCOC(=O)C(O)(c2ccccc2)c2ccccc2)CC1`: the activation was inactive: 3.36%.
The result for `COc1ccc(NC2CCN(C(=O)OC(C)(C)C)CC2)cc1` reads inactive: -0.06%; that for `O=C(NCC1(N2CCCCC2)CCCCC1)c1cccc(C(F)(F)F)c1`, inactive: 0.28%.
The result for `N#CC1(Nc2ccccc2)CCN(CCc2ccccc2)CC1` reads inactive: 2.24%; that for `CCN1CCC(Nc2ccc(Cl)cc2)CC1`, inactive: 1.74%; that for `O=C(NCC1(N2CCCCC2)CCCCC1)c1cccc([N+](=O)[O-])c1`, inactive: 0.31%.
`O=C(NCC1(N2CCCCC2)CCCCC1)c1ccc(OC(F)F)cc1`: the activation was inactive: 0.01%.
As to `CN1CCC(Nc2cccc(F)c2)CC1`, the activation is inactive: 1.21%.
Regarding `O=C(NCC1(N2CCCCC2)CCCCC1)c1cncc(Br)c1`, the activation is inactive: -0.9%.
Regarding `O=C(NCC1(N2CCOCC2)CCCCC1)c1cc(F)c(F)cc1Cl`, the activation is inactive: 0.17%.
As for `COc1cc(OC)c(C(=O)NCC2(N(C)C)CCCCC2)cc1OC`, the activation is inactive: -1.34%.
On to `CC(C)c1ccc(NC2CCN(C(=O)OC(C)(C)C)CC2)cc1`, for which the activation is inactive: 2.01%.
As for `CN(C)c1cccc(C(=O)NCC2(N3CCCCC3)CCCCC2)c1`, the activation was inactive: -0.32%.
For `COc1ccc(CN(CCCl)CCCl)cc1Cl`, the activation is inactive: -0.71%.
Take `COc1ccc(Cl)cc1C(=O)NCC1(N2CCOCC2)CCCCC1`: the activation was inactive: -1.69%.
The result for `N#CC1(Nc2ccccc2)CCN(Cc2ccccc2)CC1` reads inactive: 1.11%.
Turning to `O=C(NCC1(N2CCCCC2)CCCCC1)c1ccc(Cl)s1`, the activation is inactive: 0.87%.
With `O=C(OC1CN2CCC1CC2)C1c2ccccc2Oc2ccccc21` (stereo not drawn), the activation is inactive: 0.25%.
The figure for `CCOC(=O)N1CCC(Nc2ccc(OC)cc2)CC1` is inactive: 4.14%.
Regarding `Cc1cc(C)cc(N(C(=O)c2ccccc2)C2CCN(C(=O)OC(C)(C)C)CC2)c1`, the activation was inactive: -0.2%.
Turning to `O=C(NCC1(N2CCCCC2)CCCCC1)c1ccc(Cl)nc1`, the activation is inactive: -0.57%.
Consider `O=C(NCC1(N2CCOCC2)CCCCC1)c1cc2ccccc2o1`, for which the activation was inactive: -1.23%.
Consider `CSc1ccccc1C(=O)NCC1(N2CCCCC2)CCCCC1`, for which the activation is inactive: -0.19%.
In the case of `CC(C)(C)OC(=O)N1CCC(N(C(=O)c2ccccc2)c2ccc(F)cc2)CC1`, the activation was inactive: -0.17%.
As to `COc1ccc(C(=O)NCC2(N3CCCCC3)CCCCC2)c(OC)c1OC`, the activation is inactive: 0.23%.
With `COc1ccc(C(=O)NCC2(N3CCCCC3)CCCCC2)cc1`, the activation was inactive: 0.96%.
For `O=C(NCC1(N2CCCCC2)CCCCC1)c1cccs1`, the activation is inactive: -0.9%.
The figure for `O=C(NCC1(N2CCCCC2)CCCCC1)c1ccc(=O)[nH]c1` is inactive: 0.56%.
In the case of `Cc1ccc(OCC(C)C)c(CN(CCCl)CCCl)c1`, the activation was inactive: 1.66%.
The result for `CCOC(=O)N1CCC(Nc2cccc(C)c2)CC1` reads inactive: -0.04%; that for `COc1ccc(NC2CCN(CCc3ccccc3)CC2)c(OC)c1`, inactive: 0.92%; that for `O=C(NCC1(N2CCCCC2)CCCCC1)c1ccc(F)cc1`, inactive: 0.33%.
The figure for `CCOc1ccc(C)cc1CN(CCCl)CCCl` is inactive: 2.88%.

The values above are taken from PubChem BioAssay AID2797 (The Scripps Research Institute Molecular Screening Center, 2010).
